# Assay results: article PMC11413451, “The sperm-specific K^+ channel Slo3 is inhibited by albumin and steroids contained in reproductive fluids” (Frontiers in Cell and Developmental Biology, 2024)
# Key:
# [1] = system: T1, native Slo3 in human sperm; experiment: Whole-cell patch-clamp of native Slo3 currents in human sperm; assay type: cell-based; details: 300 µM albumin; n = 4; statistically not significant
# T1 construct: Slo3 currents recorded from human sperm at +100 mV before and after perfusion with albumin; endogenous in cells; host or cells: human swim-up sperm
# Experimental: Recordings from swim-up sperm ([Young et al., 2024]) in the whole-cell configuration were performed as described before (e.g., [Strünker et al., 2011]; [Brenker et al., 2014]) according to the protocols approved by the Ethics Committee of the Medical Association Westfalen-Lippe and the Medical Faculty Münster (2021-402-f-S) and the Declaration of Helsinki. Seals between pipette and sperm were formed at the cytoplasmic droplet or neck region in extracellular solution (HS) containing (in mM): 145 NaCl, 5 KCl, 1 MgSO4, 2 CaCl2, 5 glucose, and 20 HEPES, adjusted to pH 7.4 with NaOH. The pipette (10–15 MΩ) solution contained (in mM): 130 K-aspartate, 5 KCl, 50 HEPES, and 1 CaCl2, adjusted to pH 7.3 with KOH. Data were not corrected for liquid junction potentials.
# Analysis was performed using Clampfit 10.7 (Molecular Devices) and OriginPro 2020 (OriginLab Corporation, Northampton, MA, United States). The inhibition was calculated based on the currents from the +50 mV pulse following the +100 mV step (voltage-step protocol Figure 1). We corrected for leak current in each measurement by subtracting the current at the +50 mV pulse immediately following a −100 mV step, i.e., before opening of Slo3 commenced. […] The predicted action of multiple components was calculated by multiplying the hill equations for each individual component. […]
# [2] = molecular target: T2, human Slo3 (Homo sapiens, UniProt A8MYU2); experiment: Whole-cell patch-clamp of Slo3 currents in CHO cells co-expressing human Slo3 and LRRC52; assay type: cell-based
# T2 construct: expressed in transfected cells; host or cells: CHO cells, transient co-transfection with pcDNA3.1(+) vectors
# T2 sequence (A8MYU2 1-1149): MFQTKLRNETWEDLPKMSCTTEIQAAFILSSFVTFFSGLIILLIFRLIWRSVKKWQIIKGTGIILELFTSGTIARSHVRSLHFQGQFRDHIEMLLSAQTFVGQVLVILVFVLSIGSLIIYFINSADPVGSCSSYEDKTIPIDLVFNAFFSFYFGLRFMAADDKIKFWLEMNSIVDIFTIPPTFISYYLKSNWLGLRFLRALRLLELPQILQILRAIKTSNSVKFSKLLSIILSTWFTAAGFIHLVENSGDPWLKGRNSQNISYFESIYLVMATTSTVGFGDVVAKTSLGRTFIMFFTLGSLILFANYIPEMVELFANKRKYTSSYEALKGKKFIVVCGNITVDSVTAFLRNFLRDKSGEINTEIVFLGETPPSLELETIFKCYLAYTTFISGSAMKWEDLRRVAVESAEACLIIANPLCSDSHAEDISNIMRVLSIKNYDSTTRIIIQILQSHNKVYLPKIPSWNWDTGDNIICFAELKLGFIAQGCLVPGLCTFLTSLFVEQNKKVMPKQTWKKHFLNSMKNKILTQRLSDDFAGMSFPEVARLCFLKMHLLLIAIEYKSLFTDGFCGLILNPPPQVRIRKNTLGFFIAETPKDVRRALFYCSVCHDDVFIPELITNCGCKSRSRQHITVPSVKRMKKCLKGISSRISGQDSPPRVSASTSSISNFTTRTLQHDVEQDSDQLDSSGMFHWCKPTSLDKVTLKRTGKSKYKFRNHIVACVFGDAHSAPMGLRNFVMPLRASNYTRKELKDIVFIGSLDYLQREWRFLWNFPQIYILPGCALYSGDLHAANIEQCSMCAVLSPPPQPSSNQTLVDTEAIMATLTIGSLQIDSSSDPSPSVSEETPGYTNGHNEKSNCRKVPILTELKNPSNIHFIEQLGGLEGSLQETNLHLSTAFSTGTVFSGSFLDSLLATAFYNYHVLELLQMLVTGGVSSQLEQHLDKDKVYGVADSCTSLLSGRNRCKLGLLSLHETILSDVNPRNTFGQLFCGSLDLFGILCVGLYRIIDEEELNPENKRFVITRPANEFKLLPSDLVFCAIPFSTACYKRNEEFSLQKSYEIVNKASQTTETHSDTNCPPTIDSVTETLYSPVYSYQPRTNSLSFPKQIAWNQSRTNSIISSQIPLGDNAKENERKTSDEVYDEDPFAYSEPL
# T2 sequence (Q8N7C0 24-313 partner): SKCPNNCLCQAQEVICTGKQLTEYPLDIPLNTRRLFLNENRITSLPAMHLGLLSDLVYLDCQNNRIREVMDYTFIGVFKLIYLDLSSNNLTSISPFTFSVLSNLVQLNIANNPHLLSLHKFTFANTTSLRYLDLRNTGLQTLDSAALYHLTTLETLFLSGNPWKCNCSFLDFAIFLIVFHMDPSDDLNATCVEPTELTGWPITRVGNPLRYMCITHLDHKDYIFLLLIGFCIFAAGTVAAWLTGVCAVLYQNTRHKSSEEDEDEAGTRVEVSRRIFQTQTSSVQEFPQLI
substance,measurement,setting,value
"albumin: Human serum albumin, contained in follicular fluid in high micromolar concentrations",decrease of Slo3 currents in human sperm,[1],15 ± 30%
same,IC50,"[2]; dose-response, Hill fit, mean ± SD, read-out: IC50 for inhibition of Slo3",131 ± 20 µM
same,decrease of Slo3 currents in CHO cells,"[2]; high intracellular Ca^2+ (1 mM) and elevated pH (8.0), n = 6",70 ± 5%
same,time until inhibition peaks,"[2]; repetitive-pulse protocol, CHO cells",10 to 20 s
